The list shows a part of the results, in another mix than the full data. Activity calls are given as the source filed them. Cut-off read from the data, not from the text of the source: active = growth inhibition above about 70%; inactive = the rest.
Columns and labels:
[1] = NCI Yeast Anticancer Drug Screen. Data for the rad50 strain (AID 155);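 note: 0% = growth of vehicle-only cultures of the same strain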; details: S. cerevisiae rad50 strain growth inhibition; at 50.0 µM; hits give high values
[2] = NCI Yeast Anticancer Drug Screen. Data for the mec2-1 strain (AID 157); details: S. cerevisiae mec2-1 strain, at 50.0 µM, hits give high values
[3] = NCI Yeast Anticancer Drug Screen. Data for the sgs1 mgt1 strain (AID 161);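 note: 0% = growth of cultures given vehicle only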; details: S. cerevisiae sgs1 mgt1 strain, at 50.0 µM, hits give high values
[4] = NCI Yeast Anticancer Drug Screen. Data for the cln2 rad14 strain (AID 165);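 note: 0% = growth equal to vehicle treated cultures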; details: S. cerevisiae cln2 rad14 strain, at 50.0 µM, hits give high values
[5] = NCI Yeast Anticancer Drug Screen. Data for the bub3 strain (AID 167); details: S. cerevisiae bub3 mutant strain, at 50.0 µM, hits give high values
[6] = NCI Yeast Anticancer Drug Screen. Data for the mlh1 rad18 strain (AID 175); details: S. cerevisiae mlh1 rad18 strain growth inhibition; at 50.0 µM; hits give high values

Measured: growth inhibition

O=[N+]([O-])c1cc([N+](=O)[O-])c(O)c([N+](=O)[O-])c1.OCCNC1CCCCC1
inactive: [1] -1.9% | [2] 9.45% | [3] 0.65% | [4] -36% | [5] -13.3% | [6] 4.45%

O=[N+]([O-])c1cc([N+](=O)[O-])c([O-])c([N+](=O)[O-])c1.c1cc[n+]2c(c1)CCC2
inactive: [1] 7.35% | [2] -11.4% | [3] 8.1% | [4] 6.1% | [5] 4.75% | [6] 17.4%

Cc1ccncc1F.O=[N+]([O-])c1cc([N+](=O)[O-])c(O)c([N+](=O)[O-])c1
inactive: [1] -15.9% | [2] -22.3% | [3] 6.9% | [4] 0.35% | [5] 6.75% | [6] 10.9%

CN/C(N)=N/[N+](=O)[O-]
inactive: [1] 27.6% | [2] -11.2% | [3] -3.65% | [4] 18.2% | [5] -11.8% | [6] 13.5%

CC(O)CN.O=[N+]([O-])c1cc([N+](=O)[O-])c(O)c([N+](=O)[O-])c1
inactive: [1] 8.05% | [2] 5.05% | [3] -4.65% | [4] -28.6% | [5] -3.85% | [6] -9.4%

CCN(CC)CCCN(C(C)=O)c1ccccc1[N+](=O)[O-].O=[N+]([O-])c1cc([N+](=O)[O-])c(O)c([N+](=O)[O-])c1
inactive: [1] 2.8% | [2] -2.95% | [3] -5.3% | [4] -10.3% | [5] 5.85% | [6] 8.05%

CC(=O)C1CCCCN1C.O=[N+]([O-])c1cc([N+](=O)[O-])c(O)c([N+](=O)[O-])c1
inactive: [1] -1.05% | [2] 0.1% | [3] 23.5% | [4] -6.45% | [5] -1.55% | [6] 2.6%

CCN(CC)CCOC(=O)C(O)(c1ccccc1)c1c(C)c(C)cc(C)c1C (stereo not drawn)
inactive: [1] -1.7% | [2] 3.9% | [3] -5.8% | [4] -18.8% | [5] 1.35% | [6] 1.55%

— PubChem BioAssay (NCI)
